Measured affinities in a library of Ab-14 heavy chain variants

Source: Li et al. 2023 (doi:10.1038/s41467-023-39022-2), MIT Lincoln Laboratory and A-Alpha Bio; data file from the FLAb repository.

Target: peptide PDVDLGDISGINAS, taken from heptad repeat 2 (HR2) of SARS-CoV-2 spike.

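Phage display of a naive human antibody library on the peptide gave the parent. This is the validation round: designs drawn from the data on random variants, tested in the same kind of assay. Group labels follow the data file (Ctrl: baseline library sampled from a position-specific scoring matrix, with some repeated check sequences; En: ensemble of fine-tuned language models; GP: Gaussian process model; GPLM: also part of the Gaussian process libraries; HC: hill climbing; Gen: genetic algorithm; Gibbs: Gibbs sampling; a sequence that several methods proposed may carry one label only). AlphaSeq pools MATa yeast showing the antibodies with MATalpha yeast showing the peptide. Mating (16 h, 30 °C) was followed by selection of diploids and sequencing of their barcodes. Scores were corrected for input abundance and mapped to Kd with protein pairs of known affinity run in the same pool. The assay was run in six technical replicates.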

Ab-14 is the parent antibody, in scFv form: VH, then three GGGGS repeats, then VL. The light chain is unchanged in all variants.
VH: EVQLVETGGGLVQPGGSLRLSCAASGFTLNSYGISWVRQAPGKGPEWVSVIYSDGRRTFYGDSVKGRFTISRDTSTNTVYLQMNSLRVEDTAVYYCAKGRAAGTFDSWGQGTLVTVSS
VL: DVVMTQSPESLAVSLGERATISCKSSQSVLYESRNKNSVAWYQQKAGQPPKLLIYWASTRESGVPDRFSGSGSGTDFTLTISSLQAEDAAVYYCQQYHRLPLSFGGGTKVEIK

Sequences are complete VH domains. The read-out is the apparent dissociation constant on a log10 scale (nM): the lower, the stronger. A mean of the replicates is given; it leaves out those without a signal. "nd" means that the variant was in the library but no mating with the target was seen in any replicate; the authors take this as a sign of poor binding, and no number exists. Background: pairings of all heavy chain designs with three empty control strains gave a value in 1% of cases (median 2.08, 5th percentile 0.84). Values in that range, when seen in few replicates, are hard to tell from nonspecific mating.

log10 Kd (nM), mean	detected	VH	group
-0.31	6 of 6	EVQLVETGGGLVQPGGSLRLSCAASGFDLEDYGISWVRQAPGKGPEWVSVIYADGRRTFYADSVKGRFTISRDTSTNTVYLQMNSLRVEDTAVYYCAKGNVAGTFDFWGQGTLVTVSS	En_HC
0.17	6 of 6	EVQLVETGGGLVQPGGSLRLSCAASGFTLESYGISWVRQAPGKGPEWVSVIYSDGQRTFYADSVKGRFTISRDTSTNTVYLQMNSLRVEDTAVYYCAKGRVAGTFDSWGQGTLVTVSS	GP_Gibbs
-0.41	6 of 6	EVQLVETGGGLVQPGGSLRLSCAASGFDLDEYGISWVRQAPGKGPEWVSVIYADGKRTAYSDSVKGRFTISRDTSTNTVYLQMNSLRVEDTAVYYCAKGNVAGTFDIWGQGTLVTVSS	En_Gen
0.08	6 of 6	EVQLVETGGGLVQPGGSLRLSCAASHFELNEYGISWVRQAPGKGPEWVSVIYSDGRRTFYSDSVKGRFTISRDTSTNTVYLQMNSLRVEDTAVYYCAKGRTAGTFDSWGQGTLVTVSS	GP_Gibbs
0.91	6 of 6	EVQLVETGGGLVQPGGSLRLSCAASGFDLDEIGISWVRQAPGKGPEWVSVIYADGRRTVYTDKVKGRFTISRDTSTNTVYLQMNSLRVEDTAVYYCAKGANGVDIKVWGQGTLVTVSS	En_Gibbs
-0.59	6 of 6	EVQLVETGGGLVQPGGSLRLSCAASGFDLNEYGISWVRQAPGKGPEWVSVIYADGRRTFYADSVKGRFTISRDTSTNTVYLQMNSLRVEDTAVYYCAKGNVAGTFDKWGQGTLVTVSS	En_HC
1.76	2 of 6	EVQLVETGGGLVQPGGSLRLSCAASGWDLEKYGISWVRQAPGKGPEWVSVIYADGKRSEYSDAVKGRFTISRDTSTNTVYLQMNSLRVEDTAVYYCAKGQQAGTLNTWGQGTLVTVSS	En_Gibbs
-0.43	6 of 6	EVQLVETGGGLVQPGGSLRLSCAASGFDLNEYGISWVRQAPGKGPEWVSVIYADGRRTFYVDSVKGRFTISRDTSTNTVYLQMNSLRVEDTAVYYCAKGESAGTFDQWGQGTLVTVSS	En_HC
1.81	6 of 6	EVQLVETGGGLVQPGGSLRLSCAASGFSLNSYGISWVRQAPGKGPEWVSVIYSDGRRTAYGDKVKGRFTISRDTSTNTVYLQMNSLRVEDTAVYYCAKGRAAGTFDSWGQGTLVTVSS	GP_Gen
nd	0 of 6	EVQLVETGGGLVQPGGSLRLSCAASGFSVNSYGISWVRQAPGKGPEWVSVIYSDGRRTFYTDSVKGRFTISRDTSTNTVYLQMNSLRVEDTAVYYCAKTHAAGTFDSWGQGTLVTVSS	Ctrl
nd	0 of 6	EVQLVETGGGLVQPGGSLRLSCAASGFTLNSYGISWVRQAPGKGPEWVSVIYSDGRRTFYGDVVKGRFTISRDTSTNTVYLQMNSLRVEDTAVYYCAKGQAAGTFDSWGQGTLVTVSS	Ctrl
1.29	3 of 6	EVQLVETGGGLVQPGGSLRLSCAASGFSLNSYGISWVRQAPGKGPEWVSVIYSDGRRTFYGDSVKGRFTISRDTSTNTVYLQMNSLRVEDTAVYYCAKGWAAGTFDLWGQGTLVTVSS	GPLM_Gen
-0.46	6 of 6	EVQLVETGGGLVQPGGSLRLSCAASGFDLNEYGISWVRQAPGKGPEWVSVIYADGVRTAYVDSVKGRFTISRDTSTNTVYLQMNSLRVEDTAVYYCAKGNTAGTFDVWGQGTLVTVSS	En_Gen
-0.28	6 of 6	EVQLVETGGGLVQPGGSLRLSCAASGFDLNEYGISWVRQAPGKGPEWVSVIYADGVRTYYADSVKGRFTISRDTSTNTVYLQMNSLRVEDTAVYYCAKGNNAGTFDVWGQGTLVTVSS	En_Gen
1.47	1 of 6	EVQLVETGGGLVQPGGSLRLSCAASGFELNEYGISWVRQAPGKGPEWVSVIYADGRRTFYADSVKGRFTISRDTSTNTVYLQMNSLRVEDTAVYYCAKGNQAGTFDQWGQGTLVTVSS	En_HC
2.29	1 of 6	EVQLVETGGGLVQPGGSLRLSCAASGFTLNEYGISWVRQAPGKGPEWVSVIYSDGRRTFYSDSVKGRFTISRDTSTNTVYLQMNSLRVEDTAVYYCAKGRAGGTFTSWGQGTLVTVSS	GPLM_HC

Again, the first 2 entries without any signal:

{"VH": "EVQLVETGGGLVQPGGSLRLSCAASGFSVNSYGISWVRQAPGKGPEWVSVIYSDGRRTFYTDSVKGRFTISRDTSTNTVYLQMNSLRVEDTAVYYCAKTHAAGTFDSWGQGTLVTVSS", "group": "Ctrl", "log10 Kd (nM), mean": "nd", "detected": "0 of 6"}
{"VH": "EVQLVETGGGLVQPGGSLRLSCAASGFTLNSYGISWVRQAPGKGPEWVSVIYSDGRRTFYGDVVKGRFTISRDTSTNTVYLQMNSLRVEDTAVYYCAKGQAAGTFDSWGQGTLVTVSS", "group": "Ctrl", "log10 Kd (nM), mean": "nd", "detected": "0 of 6"}

The authors' rule: three or more of the six replicates give a measured affinity, fewer mean a poor binder. Of ten entries with the parent sequence, four were seen in most replicates (averages 0.34 to 2.37), three in one and three in none, so single entries are noisy. A sequence measured in both rounds can read differently, since the two assays cover different ranges.